# This is a selection; strong and weak results do not stand in their true shares. Activity calls are given as the source filed them.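 The calls were made as follows: active = percent inhibition above the average of all tested compounds plus 3 SD, set per screening campaign (cut at about 16% in these data); inactive = the rest.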
# Protein sequences, listed by entry. Tags and fused reporters are not part of them.
# UniProt P14735, whole entry: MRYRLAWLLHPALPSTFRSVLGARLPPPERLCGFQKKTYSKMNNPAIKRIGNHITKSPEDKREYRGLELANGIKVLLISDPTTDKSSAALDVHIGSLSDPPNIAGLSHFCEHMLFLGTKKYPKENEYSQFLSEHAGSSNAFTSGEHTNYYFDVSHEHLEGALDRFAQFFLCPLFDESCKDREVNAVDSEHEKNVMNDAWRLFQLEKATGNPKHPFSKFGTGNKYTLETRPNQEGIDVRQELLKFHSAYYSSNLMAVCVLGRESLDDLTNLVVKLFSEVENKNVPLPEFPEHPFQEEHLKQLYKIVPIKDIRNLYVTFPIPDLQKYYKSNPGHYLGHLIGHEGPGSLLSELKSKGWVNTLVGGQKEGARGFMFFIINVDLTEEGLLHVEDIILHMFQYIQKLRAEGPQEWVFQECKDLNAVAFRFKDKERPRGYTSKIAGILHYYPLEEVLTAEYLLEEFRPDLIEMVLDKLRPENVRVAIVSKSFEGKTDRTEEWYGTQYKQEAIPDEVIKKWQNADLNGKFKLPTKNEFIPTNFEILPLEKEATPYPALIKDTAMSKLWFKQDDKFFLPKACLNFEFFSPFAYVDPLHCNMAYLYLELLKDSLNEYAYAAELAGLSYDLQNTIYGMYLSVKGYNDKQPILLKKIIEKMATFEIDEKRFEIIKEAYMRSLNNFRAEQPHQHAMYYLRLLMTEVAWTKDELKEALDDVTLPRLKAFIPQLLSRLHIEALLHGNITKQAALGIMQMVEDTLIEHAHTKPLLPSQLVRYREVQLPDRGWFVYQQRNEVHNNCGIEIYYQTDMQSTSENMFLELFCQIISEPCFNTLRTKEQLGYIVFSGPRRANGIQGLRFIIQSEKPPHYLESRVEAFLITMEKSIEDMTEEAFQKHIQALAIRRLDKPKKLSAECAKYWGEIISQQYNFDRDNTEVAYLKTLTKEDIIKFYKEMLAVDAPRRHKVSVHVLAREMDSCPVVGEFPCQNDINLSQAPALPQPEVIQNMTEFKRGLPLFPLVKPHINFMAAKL
# Biological target: Insulin-degrading enzyme (Homo sapiens) (UniProt P14735)
# Assay: cellular IDE Abeta-cleavage inhibition – fluorescence polarization, HEK cells, FAbetaB substrate, primary screen (AID 434962);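 also: IDE supplied by intact live HEK cells; FP after avidin binding of uncleaved biotin substrate so inhibition keeps polarization high; 0% = DMSO wells and 100% = 60 µM reference IDE inhibitor Ii1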
# Conditions: at 5.59 µM, hits give high values
row,SMILES,inhibition
1,CCC(=O)N(c1ccccc1)C1(COC)CCN(CCn2nnn(CC)c2=O)CC1,inactive: 1.57%
2,CCC(=O)N(c1ccccc1)C1(COC)CCN(CCc2cccs2)CC1,inactive: 1.24%
